# Assay: pH of quaternary compounds, fatty acids and their reaction products in water (calibrated pH meter)
# Format: physicochemical
# Settings: for pH of Quat and Stearic Acid: 70-75 °C, stearic acid 40 g, ten minutes after acid addition; for pH of quaternary compound: mixed with distilled water (2,000 g), before heating
# Protocol: Example 2 was repeated employing the fatty acids; Conjugated Linoleic Acid (CLA); eicosapentaenoic acid (EPA); and gamma linolenic acid (GLA), were all dissolved in water and the pH of the resulting solutions were measured with a calibrated pH meter.
# Three solutions of DDAC (188.2 g) in distilled water (2,000 g) were contacted with masses of CLA, EPA and GLA, such that the molar ratio of DDAC to each of the aforementioned fatty acids was 1:1 at a temperature of 70° C. to 75° C. and after 10 minutes the pH of the reaction products of each of these products was measured.
# Merquat 550 is a trademark owned by Calgon, Inc. its manufacturer, for a proprietary cationic polymer having a repeating unit molecular weight of 680 and an overall molecular weight of about 10,000. The pH of these first transdermal compositions were measured. […] Ten minutes after acid addition, the pH of the product composition were measured.
Substance,pH of Quat and Stearic Acid,pH of quaternary compound
dimethyl benzethonium chloride [DMBC],3.01,5.02
monomethyl benzethonium chloride [MMBC],2.32,4.47

# Source: patent US7888393B2, “Transdermal compositions” (Microdermis Corporation, priority 2002, dated 2011)
